From patent US6476036B1, “Sodium salt of 3-(4-cinnamyl-1-piperazinyl)-imino-methyl rifamycin SV” (priority 1998, dated 2002)

Assay: Non-model pharmacokinetics in rabbits

Question: With “sodium salt of 3-(4-cinnamyl-1-piperazinyl)-iminomethyl rifamycin SV [T-11]” as the substance, how does the “maintenance of constant therapeutical concentrations in the organism” value read?
Answer: about 100 hours
